# Results published in PubChem BioAssay AID640 (Columbia University Molecular Screening Center, 2007).
# By UniProt entry, the sequences of proteins in these tests, tags left out.
# UniProt Q9Y2R2, whole entry: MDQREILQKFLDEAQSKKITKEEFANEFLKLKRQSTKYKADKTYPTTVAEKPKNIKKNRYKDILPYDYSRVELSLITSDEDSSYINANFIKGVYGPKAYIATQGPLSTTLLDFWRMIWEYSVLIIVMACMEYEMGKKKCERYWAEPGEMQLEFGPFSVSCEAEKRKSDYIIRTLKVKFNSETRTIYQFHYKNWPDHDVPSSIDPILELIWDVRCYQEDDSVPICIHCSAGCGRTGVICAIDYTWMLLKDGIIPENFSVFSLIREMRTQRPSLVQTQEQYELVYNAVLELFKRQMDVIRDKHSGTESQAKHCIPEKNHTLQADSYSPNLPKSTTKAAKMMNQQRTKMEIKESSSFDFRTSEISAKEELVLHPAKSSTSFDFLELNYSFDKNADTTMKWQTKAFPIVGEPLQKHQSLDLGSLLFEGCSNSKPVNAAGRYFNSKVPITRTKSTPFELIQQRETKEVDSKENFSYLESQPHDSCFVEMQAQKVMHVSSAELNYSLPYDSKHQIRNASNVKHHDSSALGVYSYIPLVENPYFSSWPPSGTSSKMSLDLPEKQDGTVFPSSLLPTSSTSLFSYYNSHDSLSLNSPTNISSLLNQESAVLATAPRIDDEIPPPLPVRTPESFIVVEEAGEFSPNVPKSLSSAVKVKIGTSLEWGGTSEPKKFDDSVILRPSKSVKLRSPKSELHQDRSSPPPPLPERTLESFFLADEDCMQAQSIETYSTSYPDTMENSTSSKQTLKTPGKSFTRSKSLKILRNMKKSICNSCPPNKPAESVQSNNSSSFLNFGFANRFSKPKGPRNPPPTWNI
# This is a selection; strong and weak results do not stand in their true shares. Active and inactive are the calls of the source.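 The calls were made as follows: active = inhibition at 2 µM at or above a set limit, the screen mean plus 3 SD (cut at about 24% in these data); inactive = the rest.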
# Biological target: Tyrosine-protein phosphatase non-receptor type 22 (Homo sapiens) (UniProt Q9Y2R2)
# Test: blockers of human LYP enzyme activity – biochemical, DiFMUP fluorescence, 2 µM, primary screen (AID 640);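 also: 0% = DMSO with enzyme and 100% = enzyme fully blocked by orthovanadate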
# Conditions: recombinant LYP catalytic domain, at 2 µM, stronger effect = higher value
row,SMILES,inhibition
1,CP(=O)(Nc1ccccc1F)Oc1ccccc1 (stereo not given),inactive: 0.4%
2,CCN(CC)CCCOC(=O)C(O)(c1ccccc1)C1CCCCC1 (stereo not given),inactive: 4.2%
3,CP(=O)(Nc1ccccc1)Oc1ccc(F)cc1 (stereo not given),inactive: 2.7%
4,COc1ccc(OP(C)(=O)Nc2cccc(Br)c2)cc1 (stereo not given),inactive: 10.3%
5,CN(C)CCOC(=O)C(O)(c1ccccc1)C1CCCCC1 (stereo not given),inactive: 3.4%
6,CCOP(C)(=S)SCC(=O)NC(C)(CC)C(=O)O (stereo not given),inactive: -4.8%
7,CP(=O)(Nc1ccc2c(c1)OCCO2)Oc1ccccc1 (stereo not given),inactive: -8.1%
8,CCN(CC)CC(O)COC(=O)C(O)(c1ccccc1)C1CCCCC1 (stereo not given),inactive: 4.7%
9,COc1ccccc1OP(C)(=O)Nc1c(C)n(C)n(-c2ccccc2)c1=O (stereo not given),inactive: -8.7%
10,CP(=O)(Oc1ccccc1)N1CCOC1=O (stereo not given),inactive: 9.8%
11,CC(C)(C)c1ccc(OP(C)(=O)O)cc1,inactive: 5%
12,CP(=O)(Nc1ccc(Cl)cc1)Oc1ccc(F)cc1 (stereo not given),inactive: -5.5%
13,CP(=O)(OC12CC3CC(CC(C3)C1)C2)OC12CC3CC(CC(C3)C1)C2,inactive: -8.6%
14,COc1ccccc1OP(C)(=O)Nc1ccc(C)c(C)c1 (stereo not given),inactive: 0.8%
15,Cc1nc2ccc3ccccc3c2o1.O=[N+]([O-])c1cc([N+](=O)[O-])c(O)c([N+](=O)[O-])c1,inactive: -6.3%
16,COc1ccc(OP(C)(=O)Nc2ccccn2)cc1 (stereo not given),inactive: 1.6%
17,CN(C)CCOC(=O)C(O)(c1ccccc1)C1CCCC1 (stereo not given),inactive: -15.4%
18,Cc1c(NP(C)(=O)Oc2ccc(C(C)C)cc2)c(=O)n(-c2ccccc2)n1C (stereo not given),inactive: 6.1%
19,CP(=O)(Nc1ccccn1)Oc1ccccc1 (stereo not given),inactive: -1.1%
20,COc1ccccc1OP(C)(=O)Nc1ccc(C)cc1C (stereo not given),inactive: -6.2%
21,CCc1ccc(OP(C)(=O)O)cc1,inactive: -2.2%
22,COc1ccc(OP(C)(=O)Nc2cccc(F)c2)cc1 (stereo not given),inactive: -1.9%
23,CP(=S)(Nn1cnnc1)Oc1ccccc1 (stereo not given),inactive: 2.8%
24,CP(=O)(NC(=O)Nc1ccccc1)Oc1ccccc1 (stereo not given),inactive: -9.3%
25,CP(=O)(Nc1ccccn1)Oc1ccc(Cl)cc1 (stereo not given),inactive: 2.5%
26,Cc1nc2ccc3ccccc3c2s1.O=[N+]([O-])c1cc([N+](=O)[O-])c(O)c([N+](=O)[O-])c1,inactive: 5.3%
27,COc1ccccc1OP(C)(=O)Nc1c(C)cccc1C (stereo not given),inactive: -14.2%
28,Cc1cc(C)cc(OP(C)(=O)Nc2ccc(C)cc2C)c1 (stereo not given),inactive: -5.6%
29,Cc1ccc(C)c(NP(C)(=O)Oc2ccccc2)c1 (stereo not given),inactive: 15.5%
30,Cc1cc(C)cc(OP(C)(=O)Nc2ccccn2)c1 (stereo not given),inactive: 0.5%
